Publication PMC4360375 (Journal of Medicinal Chemistry, 2015)

Target: T1, rGAT1 (Rattus norvegicus, UniProt P23978)
T1 construct: Y prefix of 'YrGAT-1' (own knowledge: yellow fluorescent protein, YFP, fused to rGAT1 in this group's constructs); expressed in transfected cells; host or cells: HEK293
Assay: [3H]-GABA uptake inhibition assay in HEK293 cells stably expressing rGAT1
Assay type: cell-based
Settings: HEK293, read-out: % uptake (remaining uptake of [3H]-GABA)

`N[C@@H](Cc1ccc(Oc2cc(I)c(O)c(I)c2)c(I)c1)C(=O)O` [27d, 3,3',5'-triiodothyronine] was tested, and the remaining activity at 100 µM was 88.6%.
